Laboratory results from ChEMBL document CHEMBL1129090, “Potent fluoromethyl ketone inhibitors of recombinant human calpain I” (Bioorg Med Chem Lett, 1996).

Target: T1, Calpain-1 catalytic subunit (Homo sapiens) (UniProt P07384)
T1 sequence (whole entry): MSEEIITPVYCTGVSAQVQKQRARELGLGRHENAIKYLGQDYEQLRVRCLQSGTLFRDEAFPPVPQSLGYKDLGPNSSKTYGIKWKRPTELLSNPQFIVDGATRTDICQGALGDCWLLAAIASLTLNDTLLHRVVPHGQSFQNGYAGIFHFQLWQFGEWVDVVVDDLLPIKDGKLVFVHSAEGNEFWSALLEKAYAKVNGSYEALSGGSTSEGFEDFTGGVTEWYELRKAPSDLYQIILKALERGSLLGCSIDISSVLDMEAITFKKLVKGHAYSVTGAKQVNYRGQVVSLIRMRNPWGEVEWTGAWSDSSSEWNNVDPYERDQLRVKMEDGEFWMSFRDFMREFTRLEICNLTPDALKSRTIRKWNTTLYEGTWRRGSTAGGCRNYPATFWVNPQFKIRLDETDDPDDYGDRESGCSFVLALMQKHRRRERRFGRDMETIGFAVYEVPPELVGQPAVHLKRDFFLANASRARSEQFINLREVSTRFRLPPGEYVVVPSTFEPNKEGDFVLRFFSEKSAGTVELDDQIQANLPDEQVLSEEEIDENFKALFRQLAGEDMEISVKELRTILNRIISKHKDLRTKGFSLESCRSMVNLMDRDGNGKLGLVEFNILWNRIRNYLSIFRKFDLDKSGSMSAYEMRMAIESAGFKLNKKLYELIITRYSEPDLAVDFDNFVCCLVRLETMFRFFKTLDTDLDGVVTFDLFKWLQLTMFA
Assay: Compound was tested for inhibitory activity against recombinant human Calpain 1

Structure (SMILES): CC(C)C[C@H](NC(=O)N1CCc2ccccc2C1)C(=O)NC(Cc1ccccc1)C(=O)CF (stereo partly specified)
- K obs / 1: 276000 M⁻¹ s⁻¹
